# Source: publication PMC10926851 (Journal of medicinal chemistry, 2021)
# Tested on: CCRF-CEM cells
# Experiment: Cell cycle analysis
# Type: cell-based, human
# Conditions: 72 h, CC50
structure (smiles),measurement,value
"O=C(COc1ccc2cc(/C=C3/SC(=O)NC3=O)ccc2c1)Nc1c(F)cc(F)cc1Br [7i, N-(2-Bromo-4,6-difluorophenyl)-2-((6-((2,4-dioxothiazolidin-5-ylidene)methyl)naphthalen-2-yl)oxy)acetamide]",effect on the cell cycle,G0/G1 arrest
"Cc1ccc(NC(=O)COc2ccc3cc(/C=C4/SC(=O)NC4=O)ccc3c2)cc1 [7c, 2-((6-((2,4-Dioxothiazolidin-5-ylidene)methyl)naphthalen-2-yl)-oxy)-N-(p-tolyl)acetamide]",effect on the cell cycle,did not have a significant effect on the cell cycle
